Data set [1] is classed as in vivo. The conditions noted are these: Dutch Belted, rabbit, po, 15 mg/kg.
For a further data set, the target named is factor D. The conditions noted are these: read-out: KD, binding to factor D; cited from earlier work.

The structures appear in SMILES notation. pKd: −log10 of the molar value. Where two headings read alike, the source gives them in different places.

By Tmax is commonly meant the time from dosing to the highest level. What is called pKd is the Kd on a negative log10 scale, so that one unit is a factor of ten. Regarding `CC(=O)c1nn(CC(=O)N2C[C@H](F)C[C@H]2C(=O)Nc2cccc(Br)n2)c2ccc(-c3cnc(C)nc3)cc12` [Danicopan], the Tmax in data set [1] (neural retina) and in data set [1] (plasma) was 1 h throughout. Further, the negative logarithm of the Kd (pKd) on factor D is 9.27.
